# Target: bovine plasma amine oxidase (BPAO) (Bos taurus (Bovine), UniProt Q29437)
# Protein sequences, listed by entry. Tags and fused reporters are not part of them. Residues count along the entry.
# UniProt Q29437, 17-762 limits assumed: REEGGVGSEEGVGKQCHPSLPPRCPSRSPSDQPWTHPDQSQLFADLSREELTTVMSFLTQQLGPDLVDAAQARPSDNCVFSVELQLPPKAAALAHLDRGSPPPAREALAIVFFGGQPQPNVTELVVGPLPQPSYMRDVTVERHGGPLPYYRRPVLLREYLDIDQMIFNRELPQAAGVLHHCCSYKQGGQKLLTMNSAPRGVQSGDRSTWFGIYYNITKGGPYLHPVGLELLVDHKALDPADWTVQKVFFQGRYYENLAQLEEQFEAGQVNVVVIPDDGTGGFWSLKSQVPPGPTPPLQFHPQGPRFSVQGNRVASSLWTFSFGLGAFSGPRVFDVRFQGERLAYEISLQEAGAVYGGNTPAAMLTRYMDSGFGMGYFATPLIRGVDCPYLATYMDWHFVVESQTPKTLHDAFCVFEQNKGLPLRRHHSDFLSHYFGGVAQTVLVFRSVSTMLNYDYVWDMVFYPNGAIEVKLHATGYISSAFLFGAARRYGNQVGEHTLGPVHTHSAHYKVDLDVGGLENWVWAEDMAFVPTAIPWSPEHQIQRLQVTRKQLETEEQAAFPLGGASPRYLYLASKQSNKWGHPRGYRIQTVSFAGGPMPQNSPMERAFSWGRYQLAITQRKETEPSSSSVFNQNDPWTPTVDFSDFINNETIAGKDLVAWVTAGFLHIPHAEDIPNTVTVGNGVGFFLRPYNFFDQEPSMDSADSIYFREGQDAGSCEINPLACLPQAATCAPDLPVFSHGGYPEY
# Assay: Inactivation of bovine plasma amine oxidase (benzylamine oxidation rate, absorbance at 250 nm)
# Assay type: biochemical
# Conditions: inactivation of BPAO, Table 1
row,Compound,partition ratio
1,NC/C=C\Cl,6

# Same assay, conditions: read-out: 5 min IC50 for BPAO; 5 min, Table 4
row,Compound,IC50 [nM]
1,"NCC=C=Cc1ccccc1 (single isomer, unassigned) [Ph (S isomer)]",1100
2,C=C=CCN,500
3,CCC=C=CCN,500
4,NCC=C=CCCc1ccccc1,500
5,"NCC=C=Cc1ccccc1 (single isomer, unassigned) [Ph (R isomer)]",1200
